Reference: PubChem BioAssay (EPA / NIEHS)
The list shows a part of the results, in another mix than the full data. The source made the active and inactive calls. How the source made its calls: active means hit-call score of the fitted dose curve at least 0.9, where 1 is the maximum; inactive means score below 0.9.

Assays:
[1] = read-out: Cyclin D1 (CCND1), CCND1 (gene 595); test: LTEA_HepaRG_CCND1: Life Technologies and Expression Analysis (LTEA) Assay for Cyclin D1 (CCND1) using HepaRG (AID 2283451); conditions: actives raise or lower the signal; mRNA level, 48 h;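 on AC50: differentiated human HepaRG liver cells in serum-free induction medium; TaqMan qRT-PCR transcript level normalised to ACTB GAPDH and POLR2A housekeeping genes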
Procedure, shortened: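 HepaRG plated 48 h, medium switched to serum-free induction medium, chemicals added in duplicate (top 100 uM, half-log steps, 0.5% DMSO) for 48 h, cells lysed, RNA measured by TaqMan qRT-PCR.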

[2] = read-out: flavin-containing dimethylaniline monooxygenases 3 (FMO3), FMO3 (gene 2328); test: LTEA_HepaRG_FMO3: Life Technologies and Expression Analysis (LTEA) Assay for flavin-containing dimethylaniline monooxygenases 3 (FMO3) using HepaRG (AID 2283453); conditions: actives raise or lower the signal; mRNA level, 48 h;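 on AC50: differentiated human HepaRG liver cells in serum-free induction medium; FMO3 transcript by TaqMan qRT-PCR normalized to ACTB GAPDH and POLR2A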
Procedure, shortened: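 FMO3 transcript quantified by TaqMan qRT-PCR against three housekeeping genes after 48 h chemical exposure of HepaRG cells. Eight-point half-log series, top 100 uM, 0.5% DMSO vehicle; phenobarbital 1mM induction control; up- or down-regulation fitted.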

[3] = read-out: Cytochrome P450 (CYP1A1), CYP1A1 (gene 1543); test: LTEA_HepaRG_CYP1A1: Life Technologies and Expression Analysis (LTEA) Assay for Cytochrome P450 (CYP1A1) using HepaRG (AID 2283454); conditions: actives raise or lower the signal; mRNA level, 48 h
Procedure, shortened: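 HepaRG, 48 h post-plating switched to serum-free induction medium; 8-pt conc-response (top 100 uM, half-log, 0.5% DMSO), duplicates, 48 h. Lysis in RLT, TaqMan qRT-PCR for CYP1A1; gain or loss vs DMSO.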

[4] = read-out: CFLAR gene, CFLAR (gene 8837); test: LTEA_HepaRG_CFLAR: Life Technologies and Expression Analysis (LTEA) Assay for CFLAR gene using HepaRG (AID 2283455); conditions: actives raise or lower the signal; mRNA level, 48 h
Procedure, shortened: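 Gain- or loss-of-signal changes in CFLAR transcript were fitted bidirectionally relative to 0.5% DMSO. Cells (HepaRG, duplicate wells) were dosed for 48 h across eight half-log concentrations topping at 100 uM; quantitation by TaqMan qRT-PCR.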

[5] = read-out: Forkhead box O1 (FOXO1), FOXO1 (gene 2308); test: LTEA_HepaRG_FOXO1: Life Technologies and Expression Analysis (LTEA) Assay for Forkhead box O1 (FOXO1) using HepaRG (AID 2283456); conditions: actives raise or lower the signal; mRNA level, 48 h
Experimental: (§1) LTEA_HepaRG is a cell based, multiplexed-readout assay that uses HepaRG, a human liver cell line, with measurements taken at 48 hours after chemical dosing on a 96-well plate.LTEA_HepaRG_FOXO1 is one of 102 assay component(s) measured in the LTEA HepaRG cell culture assay. It is a marker of Cell proliferation, survival, death.Data from the assay component LTEA_HepaRG_FOXO1 was analyzed into 1 endpoint. This assay endpoint, LTEA_HepaRG_FOXO1, was analyzed with bidirectional fitting relative to DMSO as the negative control and baseline of activity. Using a type of inducible reporter, measures of mRNA induction for gain or loss-of-signal activity can be used to understand regulation of transcription factor activity. To generalize the intended target to other relatable targets, this assay endpoint is annotated to the dna binding intended target family, where the subfamily is forkhead box protein.
A total of 1060 chemcials from the ToxCast library were tested in eight-point concentration-response experiments. Cell culture and cytotoxicity assays were conducted at Thermo Fisher Scientific's Custom Services facility (Madison, WI). A single lot of human HepaRG cells (Thermo Fisher Scientific, Frederick, MD) was used for the cell culture experiments. 96-well format collagen type I coated plates of human HepaRG cells were prepared using established methods. Briefly, cryopreserved HepaRG cells were thawed, plated at a density of approximately 100,000 cells/well in HepaRG Thaw, Plate, and General Purpose media (HPRG770, Thermo Fisher Scientific), and incubated for 48 hours. […] Fluidigm's 96.96 Dynamic ArrayTM (Fluidigm, Amsterdam, the Netherlands) technology was used for gene expression analyses by quantitative reverse transcription polymerase chain reaction (qRT-PCR, performed by Quintiles/Expression Analysis, Durham, NC)89. […]

[6] = read-out: growth arrest and DNA damage 45 (GADD45A), GADD45A (gene 1647); test: LTEA_HepaRG_GADD45A: Life Technologies and Expression Analysis (LTEA) Assay for growth arrest and DNA damage 45 (GADD45A) using HepaRG (AID 2283458); conditions: actives raise or lower the signal; mRNA level, 48 h
Experimental: as §1, with “plate.LTEA_HepaRG_GADD45A” for “plate.LTEA_HepaRG_FOXO1”, “Oxidative Stress.Data” for “Cell proliferation, survival, death.Data”, “LTEA_HepaRG_GADD45A” for “LTEA_HepaRG_FOXO1”, “LTEA_HepaRG_GADD45A,” for “LTEA_HepaRG_FOXO1,”, “cell cycle” for “dna binding”, “Oxidative Stress.” for “forkhead box protein.”
A total of 1060 chemcials from the ToxCast library were tested in eight-point concentration-response experiments. Cell culture and cytotoxicity assays were conducted at Thermo Fisher Scientific's Custom Services facility (Madison, WI). A single lot of human HepaRG cells (Thermo Fisher Scientific, Frederick, MD) was used for the cell culture experiments. 96-well format collagen type I coated plates of human HepaRG cells were prepared using established methods. Briefly, cryopreserved HepaRG cells were thawed, plated at a density of approximately 100,000 cells/well in HepaRG Thaw, Plate, and General Purpose media (HPRG770, Thermo Fisher Scientific), and incubated for 48 hours. 0.5% DMSO was selected as vehicle control to balance the requisite need of DMSO in HepaRG cultures to maintain differentiation (for example, baseline metabolism, proportions of hepatocytes vs. cholangiocytes), while enabling further hepatic receptor pathway activation (for example, PXR and CAR) in response to chemical exposure. 48 hours after plating, the culture medium was replaced with HepaRG Serum-Free Incudtion Media. Cells were exposed to each test chemical in duplicate and maintained in CO2 incubators for another 48 hours. Chemical plates were thawed to room temperature and 200x concentrations of treatment groups were prepared. 8-point conentration-reponse curves were made with the highest exposure at 100 uM, followed by half-log dilutions, all in 0.5% DMSO. Each test plate contained variouse controls, induction positive controls (1mM phenobarbital), cytotoxicity positive controls ([…] aflatoxin B1), vehicle controls (0.5% DMSO), and total lysis controls (0.5% DMSO). […] Fluidigm's 96.96 Dynamic ArrayTM (Fluidigm, Amsterdam, the Netherlands) technology was used for gene expression analyses by quantitative reverse transcription polymerase chain reaction (qRT-PCR, performed by Quintiles/Expression Analysis, Durham, NC)89. […]

[7] = read-out: Forkhead box O3 (FOXO3), FOXO3 (gene 2309); test: LTEA_HepaRG_FOXO3: Life Technologies and Expression Analysis (LTEA) Assay for Forkhead box O3 (FOXO3) using HepaRG (AID 2283459); conditions: actives raise or lower the signal; mRNA level, 48 h
Procedure, shortened: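 Gene-expression endpoint: FOXO3 transcript level by qRT-PCR in HepaRG cultures treated 48 h with chemicals up to 100 uM (half-log, 0.5% DMSO vehicle).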

[8] = read-out: ABC Transporter (ABCB1), ABCB1 (gene 5243); test: LTEA_HepaRG_ABCB1: Life Technologies and Expression Analysis (LTEA) Assay for ABC Transporter (ABCB1) using HepaRG (AID 2283460); conditions: actives raise or lower the signal; mRNA level, 48 h
Procedure, shortened: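 Human liver HepaRG line treated 48 h with up to 100 uM compound (eight half-log points, 0.5% DMSO); ABCB1 mRNA change fitted bidirectionally against DMSO controls.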

[9] = read-out: catalase (CAT), CAT (gene 847); test: LTEA_HepaRG_CAT: Life Technologies and Expression Analysis (LTEA) Assay for catalase (CAT) using HepaRG (AID 2283452); conditions: actives raise or lower the signal; mRNA level, 48 h;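 on AC50: TaqMan qRT-PCR signal normalized to ACTB GAPDH and POLR2A housekeeping genes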
Procedure, shortened: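 Differentiated HepaRG cells in serum-free induction medium were dosed 48 h in duplicate, eight half-log concentrations from 100 uM in 0.5% DMSO. Transcript measured by TaqMan qRT-PCR, normalised to ACTB/GAPDH/POLR2A, fitted bidirectionally against DMSO.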

[10] = CEETOX_H295R_TESTO: CeeTox H295R High-throughput Steroidogenesis Assay for Testosterone (TESTO) (AID 2283457); conditions: actives raise or lower the signal
Experimental: CEETOX_H295R is a cell-based, multiplexed-readout assay that uses H295R, a human adrenal gland cell line, with measurements taken at 48 hours after chemical dosing in a 96-well plate.CEETOX_H295R_TESTO is one of 23 assay component(s) measured or calculated from the CEETOX_H295R assay. It is designed to make measurements of hormone induction, a form of inducible reporter, as detected with […] by HPLC-MS-MS technology.Data from the assay component CEETOX_H295R_TESTO was analyzed into 1 assay endpoint. This assay endpoint, CEETOX_H295R_TESTO, was analyzed with bidirectional fitting relative to DMSO as the negative control and baseline of activity. […]
Cell culture and media preparation procedures were conducted in accordance with OECD Test No. 456 guidelines, with minor modifications. […] For steroid quantification, media samples were shipped to OpAns, LLC (Durham, NC) on dry ice, and samples were thawed to room temperature prior to liquid-liquid extraction. […] Steroid hormones were separated by HPLC, eluted using a reverse phase C18 gradient with electrospray positive ionization, followed by quantification by tandem mass spectrometry (MS/MS). Data were acquired on a MassHunter Workstation Acquisition version B03.01 (Agilent Technologies, Inc.) and processed using MassHunter Quantitative Analysis for QQQ. […] Absorbance was read at 570 and 650nm using a Packard Fusion microplate reader. […]

Measured: AC50

CC(C)OP(=S)(OC(C)C)SCCNS(=O)(=O)c1ccccc1
active: [1] 91.6 µM | [2] 81.2 µM | [3] 16.9 µM | [5] 86 µM | [6] 70.6 µM | [7] 87.2 µM | [8] 90.1 µM
inactive: [4]

CN(C(=O)Cc1cccc2occc12)[C@H]1CC[C@@]2(CCCO2)C[C@@H]1N1CCCC1
inactive: [1] | [9] | [2] | [4] | [5] | [6] | [7]
active: [3] 41.9 µM | [8] 33.4 µM

O=C1C2CC=CCC2C(=O)N1SC(Cl)(Cl)C(Cl)Cl (stereo not given)
active: [3] 65.1 µM | [4] 9.92 µM | [6] 0.511 µM
inactive: [1] | [9] | [2] | [5] | [10] | [7] | [8]

Cc1cc([N+](=O)[O-])cc([N+](=O)[O-])c1O
inactive: [1] | [7]
active: [9] 5.81 µM | [2] 8.8 µM | [3] 75.1 µM | [4] 4.49 µM | [6] 35.2 µM | [8] 12.3 µM
